Measurements from patent publication US20230129438A1, “IMMUNOMODULATING IMINE-OXAZOLINE AZALIDES” (Zoetis Services LLC, priority 2020, published 2023).

What follows are compounds tested on BRD pathogens, M. haemolytica and P. multocida (assay: In-vitro MIC model, BRD pathogen screening panel). Details: non-antibacterial = MIC>64 μg/mL for M. haemolytica and P. multocida.
Assay type: cell-based

Q: `CC[C@H]1OC(=O)[C@H](C)[C@@H](O[C@H]2C[C@@](C)(OC)[C@](O)(CNCCOC)[C@H](C)O2)[C@H](C)[C@@H](O[C@@H]2O[C@H](C)C[C@H]3[C@H]2OC(=Nc2ccc(OC)cc2)N3C)[C@](C)(O)C[C@@H](C)CN[C@H](C)[C@@H](O)[C@]1(C)O` (mixture of isomers) [Example A-13, (E/Z)-(2R,3S,4R,5R,8R,10R,11R,12S,13S,14R)-2-ethyl-3,4,10-trihydroxy-13-(((2R,4R,5S,6S)-5-hydroxy-4-methoxy-5-(((2-methoxyethyl)amino)methyl)-4,6-dimethyltetrahydro-2H-pyran-2-yl)oxy)-11-(((3aR,4S,6R,7aS)-2-((4-methoxyphenyl)imino)-1,6-dimethylhexahydro-2H-pyrano[4,3-d]oxazol-4-yl)oxy)-3,5,8,10,12,14-hexamethyl-1-oxa-6-azacyclopentadecan-15-one] was tested. Which “antibacterial activity against BRD pathogens, in words” value (from here on “antibacterial activity”) did it give?
A: lack of in vitro activity

Q: Which “antibacterial activity” value does the source give for `CC[C@H]1OC(=O)[C@H](C)[C@@H](O[C@H]2C[C@@](C)(OC)[C@](O)(CN3CCOCC3)[C@H](C)O2)[C@H](C)[C@@H](O[C@@H]2O[C@H](C)C[C@H]3[C@H]2OC(=Nc2ccccc2)N3C)[C@](C)(O)C[C@@H](C)CN[C@H](C)[C@@H](O)[C@]1(C)O` (mixture of isomers) [Example B-3, (E/Z)-(2R,3S,4R,5R,8R,10R,11R,12S,13S,14R)-11-(((3aR,4S,6R,7aS)-1,6-dimethyl-2-(phenylimino)hexahydro-2H-pyrano[4,3-d]oxazol-4-yl)oxy)-2-ethyl-3,4,10-trihydroxy-13-(((2R,4R,5S,6S)-5-hydroxy-4-methoxy-4,6-dimethyl-5-(morpholinomethyl)tetrahydro-2H-pyran-2-yl)oxy)-3,5,8,10,12,14-hexamethyl-1-oxa-6-azacyclopentadecan-15-one] here?
A: lack of in vitro activity

Q: Which “antibacterial activity” value does the source give for `CCCNC[C@]1(O)[C@H](C)O[C@@H](O[C@H]2[C@H](C)[C@@H](O[C@@H]3O[C@H](C)C[C@H]4[C@H]3OC(=NCC(F)(F)F)N4C)[C@](C)(O)C[C@@H](C)CN[C@H](C)[C@@H](O)[C@](C)(O)[C@@H](CC)OC(=O)[C@@H]2C)C[C@@]1(C)OC` (mixture of isomers) [Example A-4, (E/Z)-(2R,3S,4R,5R,8R,10R,11R,12S,13S,14R)-11-(((3aR,4S,6R,7aS)-1,6-dimethyl-2-((2,2,2-trifluoroethyl)imino)hexahydro-2H-pyrano[4,3-d]oxazol-4-yl)oxy)-2-ethyl-3,4,10-trihydroxy-13-(((2R,4R,5S,6S)-5-hydroxy-4-methoxy-4,6-dimethyl-5-((propylamino)methyl)tetrahydro-2H-pyran-2-yl)oxy)-3,5,8,10,12,14-hexamethyl-1-oxa-6-azacyclopentadecan-15-one] here?
A: lack of in vitro activity

Q: Which “antibacterial activity” value does the source give for `CCCNC[C@]1(O)[C@H](C)O[C@@H](O[C@H]2[C@H](C)[C@@H](O[C@@H]3O[C@H](C)C[C@H]4[C@H]3OC(=Nc3ccc(OC)nc3)N4C)[C@](C)(O)C[C@@H](C)CN[C@H](C)[C@@H](O)[C@](C)(O)[C@@H](CC)OC(=O)[C@@H]2C)C[C@@]1(C)OC` (mixture of isomers) [Example A-17, (E/Z)-(2R,3S,4R,5R,8R,10R,11R,12S,13S,14R)-2-ethyl-3,4,10-trihydroxy-13-(((2R,4R,5S,6S)-5-hydroxy-4-methoxy-4,6-dimethyl-5-((propylamino)methyl)tetrahydro-2H-pyran-2-yl)oxy)-11-(((3aR,4S,6R,7aS)-2-((6-methoxypyridin-3-yl)imino)-1,6-dimethylhexahydro-2H-pyrano[4,3-d]oxazol-4-yl)oxy)-3,5,8,10,12,14-hexamethyl-1-oxa-6-azacyclopentadecan-15-one] here?
A: lack of in vitro activity

Q: `CCCNC[C@]1(O)[C@H](C)O[C@@H](O[C@H]2[C@H](C)[C@@H](O[C@@H]3O[C@H](C)C[C@H]4[C@H]3OC(=Nc3ccc(OC)cc3)N4C)[C@](C)(O)C[C@@H](C)CN[C@H](C)[C@@H](O)[C@](C)(O)[C@@H](CC)OC(=O)[C@@H]2C)C[C@@]1(C)OC` (mixture of isomers) [Example A-9, (E/Z)-(2R,3S,4R,5R,8R,10R,11R,12S,13S,14R)-2-ethyl-3,4,10-trihydroxy-13-(((2R,4R,5S,6S)-5-hydroxy-4-methoxy-4,6-dimethyl-5-((propylamino)methyl)tetrahydro-2H-pyran-2-yl)oxy)-11-(((3aR,4S,6R,7aS)-2-((4-methoxyphenyl)imino)-1,6-dimethylhexahydro-2H-pyrano[4,3-d]oxazol-4-yl)oxy)-3,5,8,10,12,14-hexamethyl-1-oxa-6-azacyclopentadecan-15-one] was tested. Which “antibacterial activity” value did it give?
A: lack of in vitro activity
